Laboratory results taken from ChEMBL document CHEMBL3272301, “Improved delivery through biological membranes. 2. Distribution, excretion, and metabolism of N-methyl-1,6-dihydropyridine-2-carbaldoxime hydrochloride, a pro-drug of N-methylpyridinium-2-carbaldoxime chloride” (1976).

How the values were obtained:
[1] = Drug excretion in beagle dog urine assessed as radioactivity treated with [14C]-labelled N-Methyl-1,6-dihydropyridine-2-carbaldoxime hydrochloride at 4.5 mg/kg, iv by liquid scintillation counting; settings: in vivo, strain beagle
[2] = Drug excretion in po dosed beagle dog urine assessed as metabolite formation by radiochromatography; settings: in vivo, strain beagle
[3] = Drug excretion in iv dosed beagle dog urine assessed as metabolite formation treated with [14C]-labelled N-Methyl-1,6-dihydropyridine-2-carbaldoxime hydrochloride by radiochromatography; settings: in vivo, strain beagle
[4] = Dissociation constant, pKa of the compound
[5] = Drug excretion in po dosed beagle dog urine assessed as metabolite formation treated with [14C]-labelled N-Methyl-1,6-dihydropyridine-2-carbaldoxime hydrochloride by radiochromatography; settings: in vivo, strain beagle
[6] = Retardation factor of the compound
[7] = Drug level in beagle dog whole blood at 5 mg/kg, iv measured after 5 mins; settings: in vivo, strain beagle
[8] = Drug excretion in po dosed beagle dog urine; settings: in vivo, strain beagle
Plasma [9] = assay: Plasma concentration in beagle dog at 5 mg/kg, iv measured after 120 mins; settings: in vivo, 2 h, strain beagle
[10] = Drug excretion in iv dosed beagle dog urine treated with [14C]-labelled N-Methyl-1,6-dihydropyridine-2-carbaldoxime hydrochloride by radiochromatography; settings: in vivo, strain beagle
Plasma [11] = assay: Plasma concentration in beagle dog at 5 mg/kg, iv measured after 10 mins; settings: in vivo, strain beagle
[12] = Drug excretion in po dosed beagle dog urine treated with [14C]-labelled N-Methyl-1,6-dihydropyridine-2-carbaldoxime hydrochloride by radiochromatography; settings: in vivo, strain beagle
[13] = Drug excretion in po dosed human; settings: in vivo
[14] = Drug excretion in beagle dog urine at 43.9 mg/kg, po; settings: in vivo, strain beagle
[15] = Drug excretion in po dosed beagle dog urine by radiochromatography; settings: in vivo, strain beagle
[16] = Drug excretion in beagle dog urine assessed as radioactivity at 7 mg/kg, iv by liquid scintillation counting; settings: in vivo, strain beagle
[17] = Drug excretion in human at 1 g, po; settings: in vivo
[18] = Drug excretion in beagle dog feces at 43.9 mg/kg, po; settings: in vivo, strain beagle

CN1CC=CC=C1/C=N/O.Cl
Drug excretion [1]: 98 %ID
Drug excretion [2]: 13 %ID
Drug excretion [3]: 34 %ID
pKa [4]: 6.32
Drug excretion [5]: 35 %ID
Rf [6]: 0.33

Cn1ccccc1=O
Drug excretion [5]: 15 %ID
Rf [6]: 0.08

C[n+]1ccccc1/C=N/O.[Cl-]
Drug uptake [7]: 5500 ng/mL
Drug excretion [8]: 65%
Cp (Plasma [9]): 800 ng/mL
Drug excretion [10]: 66%
Cp (Plasma [11]): 11500 ng/mL
Drug excretion [12]: 50%
Drug excretion [13]: 27%
Drug excretion [14]: 79.8%
Drug excretion [15]: 87%
Drug excretion [16]: 92.2 %ID
Drug excretion [17]: 34%
Drug excretion [18]: 62.1%
Rf [6]: 0.53

C[n+]1ccccc1C#N
Rf [6]: 0.08

Cn1ccc(=O)cc1C(N)=O
Drug excretion [5]: 15 %ID
Rf [6]: 0.08
